US20210290816A1, “LIQUID EMBOLICS” (MicroVention, Inc., priority 2020, published 2021)

Test system: Porcine Liver
Details: pig

O=C1[O][Pt]2([NH][C@@H]3CCCC[C@H]3[NH]2)[O]C1=O [oxaliplatin]
tapering of oxaliplatin in the blood back to baseline (1.5 mL PHIL LV loaded with 30 mg oxaliplatin, blood collected to 120 minutes): beyond the time scale of the experiment
oxaliplatin in the blood, rapid rise to (in five minutes, 1.5 mL PHIL LV loaded with 30 mg oxaliplatin into hepatic artery branch): about 1,300 ppb
